Measured values reported in patent US20090186949A1, “Method for Treating Endothelial and Epithelial Cell Disorders by Administering High Molecular Weight PEG-Like Compounds” (THE UNIVERSITY OF CHICAGO, priority 2006, published 2009).

Experiment: Solubility and viscosity observations

High Molecular Weight PolyEthylene Glycol [HMW PEG]
solubility: relatively insoluble
